Molecules are shown by their SMILES.

The target of this experiment is T1, catalytic domain of human collagenase-3 (MMP-13) (Homo sapiens, UniProt P45452).
T1 construct: Determining the enzymic activity of the catalytic domain of human collagenase-3 (MMP-13); purchased INVITEK, Berlin 30 100 803
The experiment is described as follows: Enzymic activity of the catalytic domain of human collagenase-3 (MMP-13), fluorogenic substrate. Conditions: activated with APMA, pH 7.5, read-out: IC50 MMP13. The format is biochemical. The method, then: Determining the enzymic activity of the catalytic domain of human collagenase-3 (MMP-13).
Activation of the proenzyme:
2 parts by volume of proenzyme are incubated with 1 part by volume of APMA solution at 37° C. for 1.5 hours. The APMA solution is prepared from a 10 mmol/l solution of p-aminophenylmercuric acetate in 0.1 mmol/l NaOH by diluting it with 3 parts by volume of Tris/HCl buffer, pH 7.5 (see below). The pH is adjusted to between 7.0 and 7.5 by adding 1 mmol/l HCl.
In order to measure the enzyme activity, 10 μl of enzyme solution are incubated for 15 minutes with 10 μl of a buffered 3% (v/v) solution of dimethyl sulfoxide (reaction 1). In order to measure the enzyme inhibitor activity, 10 μl of enzyme solution are incubated with 10 μl of a buffered 3% (v/v) solution of dimethyl sulfoxide which contains the enzyme inhibitor (reaction 2).
The enzyme activity is presented as increase in extinction/minute.
The buffer solution contains 0.05% Brij (Sigma, Deisenhofen, Germany) and also 0.1 mol of Tris/HCl/l, 0.1 mol of NaCl/1 and 0.01 mol of CaCl2/l (pH=7.5).
The substrate solution contains 0.75 mmol of the fluorogenic substrate (7-methoxycoumarin-4-yl)acetyl-Pro-Leu-Gly-Leu-3-(2′,4′-dinitrophenyl)-L-2,3-diaminopropionyl-Ala-Arg-NH2/I(Bachem, Heidelberg, Germany).

With `Cc1cccc(CNC(=O)c2cc(C(=O)NCc3cccc(C)c3)ncn2)c1` [Example 18], the half-inhibitory concentration (IC50) was determined as 0.072 µM.

As usually defined, the IC50 is the concentration needed to halve the response being measured.

Source of the values: US6933298B2, “Pyridine-2,4-dicarboxylic acid diamides and pyrimidine-4,6-dicarboxylic acid diamides and the use thereof for selectively inhibiting collagenases” (Aventis Pharma Deutschland GmbH, priority 2001, dated 2005).
